Measured values from US10435480.

Tests used:
[1] = target: Mouse IgG (Sigma Cat No. 15381) (mouse); test: immunoassay, Protein A adsorbed on hydrophobic plate, mouse IgG 2 ug/mL, anti-mouse IgG-AP and PNPP; well 1
[2] = target: Rabbit anti-mouse IgG-AP conjugate (Sigma Cat. No. A3688) (rabbit); test: control without mouse IgG: conjugate only (1/5000) on Protein A, hydrophilic plate
[3] = target: Rabbit anti-mouse IgG-AP conjugate (Sigma Cat. No. A3688) (rabbit); test: control without mouse IgG: conjugate only (1/5000) on Protein A, hydrophobic plate
[4] = target: Mouse IgG (Sigma Cat No. 15381) (mouse); test: immunoassay, Protein A adsorbed on hydrophobic plate, mouse IgG 2 ug/mL, anti-mouse IgG-AP and PNPP; well 2
[5] = target: Mouse IgG (Sigma Cat No. 15381) (mouse); test: immunoassay, Protein A adsorbed on hydrophilic plate, mouse IgG 2 ug/mL, anti-mouse IgG-AP and PNPP; well 2
[6] = target: Mouse IgG (Sigma Cat No. 15381) (mouse); test: immunoassay, Protein A adsorbed on hydrophilic plate, mouse IgG 2 ug/mL, anti-mouse IgG-AP and PNPP; well 1

native Staphylococcus aureus Protein A (Sigma Cat. No. P7387) (from UniProt P38507 37-477)
A405 [1]: 0.014 A405
A405 [2]: 0.025 A405
A405 [3]: 0.003 A405
A405 [4]: 0.01 A405
A405 [5]: 1.43 A405
A405 [6]: 1.26 A405
